Chains of the proteins cited; added tags and fusions are not shown.
UniProt O60674, whole entry I682F: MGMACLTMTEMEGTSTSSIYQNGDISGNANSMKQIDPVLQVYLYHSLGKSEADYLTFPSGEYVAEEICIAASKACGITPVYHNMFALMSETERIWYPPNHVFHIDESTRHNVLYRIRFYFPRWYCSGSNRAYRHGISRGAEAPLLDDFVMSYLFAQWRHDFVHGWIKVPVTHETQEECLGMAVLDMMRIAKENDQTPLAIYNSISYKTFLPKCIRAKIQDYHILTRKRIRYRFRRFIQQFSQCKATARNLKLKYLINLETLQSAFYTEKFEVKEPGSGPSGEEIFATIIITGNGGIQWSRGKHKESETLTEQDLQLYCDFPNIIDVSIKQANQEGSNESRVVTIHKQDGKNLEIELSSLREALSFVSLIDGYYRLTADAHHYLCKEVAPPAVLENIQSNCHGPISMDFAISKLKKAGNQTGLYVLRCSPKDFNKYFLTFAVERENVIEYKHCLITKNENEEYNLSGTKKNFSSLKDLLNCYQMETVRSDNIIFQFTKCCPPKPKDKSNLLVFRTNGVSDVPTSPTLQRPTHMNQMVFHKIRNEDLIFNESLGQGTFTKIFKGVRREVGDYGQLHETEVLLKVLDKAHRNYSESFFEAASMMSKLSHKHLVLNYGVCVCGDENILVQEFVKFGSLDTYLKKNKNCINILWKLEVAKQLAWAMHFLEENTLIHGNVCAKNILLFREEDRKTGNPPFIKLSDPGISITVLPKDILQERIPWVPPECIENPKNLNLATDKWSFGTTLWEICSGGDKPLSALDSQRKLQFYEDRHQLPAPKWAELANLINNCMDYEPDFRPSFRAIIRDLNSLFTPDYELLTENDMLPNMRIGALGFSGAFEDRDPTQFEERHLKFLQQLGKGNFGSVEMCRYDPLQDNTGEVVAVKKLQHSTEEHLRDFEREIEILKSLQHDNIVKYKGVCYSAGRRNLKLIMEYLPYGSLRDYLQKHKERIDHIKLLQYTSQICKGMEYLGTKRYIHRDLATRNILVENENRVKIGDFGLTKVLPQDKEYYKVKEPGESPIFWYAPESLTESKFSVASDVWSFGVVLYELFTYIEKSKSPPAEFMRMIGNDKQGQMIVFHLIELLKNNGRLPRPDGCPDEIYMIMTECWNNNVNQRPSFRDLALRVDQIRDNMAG

In patent US12624038B2, “Molecules and methods related to treatment of uncontrolled cellular proliferation” (ST. JUDE CHILDREN'S RESEARCH HOSPITAL, priority 2019, dated 2026):

Tests used:
JAK2 [1] = target: T1, JAK2 (Homo sapiens, UniProt O60674); assay: KdELECT Kd measurement (KINOMEscan platform), JAK2; assay type: binding; conditions: read-out: Kd to JAK family kinases, JAK2
T1 construct: purchased Eurofins DiscoveRx

JAK2 [2] = target: T2, JAK2 (Homo sapiens, UniProt O60674, I682F); assay: Target degradation (Western Blot) in MHH-CALL-4 cells, JAK2; assay type: cell-based; conditions: 100 nM PROTAC at 24 h
T2 construct: endogenous in cells; host or cells: MHH-CALL-4

[3] = tested on: Human CD45+ leukemic cells from patient derived xenografts (PDX); assay: Ex vivo cytotoxicity (MTT) in PDX leukemic cells; conditions: FIG. 6A

Row | Compound | Target Degradation (Western Blot) JAK2 (JAK2 [2]) | other results
1 | CCS(=O)(=O)N1CC(CC#N)(n2cc(-c3ncnc4[nH]ccc34)cn2)C1 [Baricitinib, baricitinib, reference compound] | – | Kd (JAK2 [1]): 0.092 nM
2 | CCS(=O)(=O)N1CC(CC#N)(n2cc(-c3nc(Nc4ccc(C(=O)NCCCCNc5cccc6c5C(=O)N(C5CCC(=O)NC5=O)C6=O)cc4)nc4[nH]ccc34)cn2)C1 (stereo not shown) [Compound 6] | 3 (3 = Strong (>60% degradation at 24 h)) | –
3 | CCS(=O)(=O)N1CC(CC#N)(n2cc(-c3nc(Nc4ccc(C(=O)NCCN5CCN(c6ccc7c(c6)C(=O)N(C6CCC(=O)NC6=O)C7=O)CC5)cc4)nc4[nH]ccc34)cn2)C1 (stereo not shown) [Compound 8] | 3 (3 = Strong (>60% degradation at 24 h)) | –
4 | N#CC[C@H](C1CCCC1)n1cc(-c2ncnc3[nH]ccc23)cn1 [Ruxolitinib, ruxolitinib, reference compound] | – | cytotoxicity in PDX cells ex vivo [3]: not
